Data set [1] addresses T1, EP4R (Homo sapiens, UniProt P35408). The data set is described as follows: EP4R functional cyclic AMP production assay (Eurofins item 1872). The note with it: for Kb: read-out: cAMP Assay KB; for cAMP assay response: technical replicates. In general terms: Changes in cAMP serve as a functional read-out for many G protein-coupled receptors.
Data set [2] addresses T1, EP4R. Nature of the data set: PRESTO-Tango β-arrestin2 recruitment assay. The note with it: for IC50: read-out: PRESTO-Tango IC50; for Ki: read-out: PRESTO-Tango Ki*, calculated using the Cheng Prusoff equation.
For the next data set, the target named is wild-type EP4R (Homo sapiens, UniProt P35408). Nature of the data set: BRET β-arrestin2 recruitment assay, wild-type EP4R. The conditions noted are these: for IC50: read-out: Arrestin-BRET IC50; for Ki: read-out: Arrestin-BRET Ki*, calculated using the Cheng Prusoff equation.
The target in data set [3] is T1, EP4R. Nature of the data set: Radioligand (3H-PGE2) displacement assay at EP4R. Format: binding. The note with it: for Binding assay - 3H-PGE2 displacment, EP4R: replicate values; for Ki: read-out: Radiologand displacement Ki, 3H-PGE2.
Data set [4] can be described thus: Pharmacokinetics in CD-1 mice (plasma, brain, CSF). The conditions noted are these: IP 10 mg/kg; for Plasma concentration C (mean): mean of 3 animals; for Final plasma concentration, individual sample: single animal.
Setting [5] is: against 30 nM PGE2, Cheng-Prusoff equation.

The chains behind the UniProt entries cited, without tags or fusion partners.
UniProt P35408, whole entry: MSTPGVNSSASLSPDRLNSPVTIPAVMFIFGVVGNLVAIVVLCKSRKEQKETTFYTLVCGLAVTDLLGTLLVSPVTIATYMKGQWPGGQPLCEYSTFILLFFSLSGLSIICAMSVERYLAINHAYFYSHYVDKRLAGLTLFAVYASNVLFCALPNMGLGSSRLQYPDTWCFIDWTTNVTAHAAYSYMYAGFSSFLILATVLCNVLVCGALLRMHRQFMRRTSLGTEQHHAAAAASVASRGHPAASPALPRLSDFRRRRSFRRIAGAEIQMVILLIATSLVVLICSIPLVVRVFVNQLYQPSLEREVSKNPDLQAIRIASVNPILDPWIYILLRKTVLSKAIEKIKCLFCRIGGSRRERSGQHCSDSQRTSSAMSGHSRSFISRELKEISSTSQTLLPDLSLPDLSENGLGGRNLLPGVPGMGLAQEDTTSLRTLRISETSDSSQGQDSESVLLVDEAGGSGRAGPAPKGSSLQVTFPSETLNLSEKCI

The IC50 is the concentration that inhibits the measured activity by half. For orientation: Ki means the dissociation constant of the complex between target and ligand, obtained from inhibition or displacement.

Where “and” joins values, the source holds several entries; their conditions need not be identical. Identical values can stand only once. Like-named read-outs stand apart in the source and are kept apart here.

Consider `C[C@H](NC(=O)c1cc(Cl)ccc1Oc1ccc(F)cc1)c1ccc(C(=O)O)cc1`, for which, at EP4R [1], the “potency at EP4R relative to 77” value was “approximately five-fold higher potency” and the Kb came out at 2.9 nM.
For `Cc1cc(C(=O)N[C@@H]2CC[C@@H](C(=O)O)CCC2(F)F)c(C)n1-c1ccccc1` [79], the “PRESTO-Tango -logIC50” value on EP4R [2] is 5.31. For the same compound, the IC50 was determined as 4940 nM at EP4R [2] and 159 nM on wild-type EP4R. Moreover, the results for the Ki on EP4R [2], at wild-type EP4R and at EP4R [3] were 989 nM, 31.8 nM and 926 nM, respectively. The “Arrestin-BRET -logIC50” value on wild-type EP4R worked out at 6.78. For the same compound, the cAMP assay response on EP4R [1] (compound 1e-6 M) is 23.6 and 26.2; on EP4R [1] (compound 1e-5 M) it was 77.5 and 62.4. In addition, on EP4R [1] (setting [5]), the Kb came to 300 nM. Moreover, the “Binding assay - 3H-PGE2 displacment, EP4R” value on EP4R [3] (Log[Drug] -11.00) was determined as 108.685.
Consider `Cc1cc(C(=O)N[C@@H]2CC[C@@H](C(=O)O)CCC2(F)F)c(C)n1-c1ccccc1` [82], for which the “PRESTO-Tango -logIC50” value at EP4R [2] was 5.11. The results for the IC50 at EP4R [2] and on wild-type EP4R were 7680 nM and 220 nM, respectively. Further, the Ki at EP4R [2] is 1540 nM; on wild-type EP4R, 44 nM; at EP4R [3], 457 nM. The “Arrestin-BRET -logIC50” value on wild-type EP4R is on record as 6.66. Also, the “Plasma concentration C (mean)” value was determined as 716 ng/mL in data set [4] (5 min); 3263 ng/mL in data set [4] (15 min); 4161 ng/mL in data set [4] (30 min); 4644 ng/mL in data set [4] (60 min); 1783 ng/mL in data set [4] (120 min); 232 ng/mL in data set [4] (240 min). Moreover, the “Plasma concentration C (mean)” value in data set [4] (360 min) came out at 61.9 ng/mL; in data set [4] (480 min) it was 41.3 ng/mL; in data set [4] ([…]) it was 0 ng/mL. Further, the “Final plasma concentration, individual sample” value is 823 ng/mL and 643 ng/mL and 683 ng/mL in data set [4] (5 min, D=1, listed as Z4989072931, 10 mg/kg); 3520 ng/mL and 3784 ng/mL and 2486 ng/mL in data set [4] (15 min, D=1, listed as Z4989072931, 10 mg/kg); 3820 ng/mL and 4633 ng/mL and 4029 ng/mL in data set [4] (30 min, D=1, listed as Z4989072931, 10 mg/kg); 4302 ng/mL and 3865 ng/mL and 5766 ng/mL in data set [4] (60 min, D=1, listed as Z4989072931, 10 mg/kg); 1377 ng/mL and 1848 ng/mL and 2124 ng/mL in data set [4] (120 min, D=1, listed as Z4989072931, 10 mg/kg); 188 ng/mL and 310 ng/mL and 199 ng/mL in data set [4] (240 min, D=1, listed as Z4989072931, 10 mg/kg). Besides, the “Final plasma concentration, individual sample” value in data set [4] (360 min, D=1, listed as Z4989072931, 10 mg/kg) is 57.2 ng/mL and 54.1 ng/mL and 74.4 ng/mL; in data set [4] ([…], D=1) it was 0 ng/mL. The cAMP assay response at EP4R [1] (compound 1e-6 M) was 43.7; at EP4R [1] (compound 1e-5 M) it was 79 and 81.9. Besides, the Kb on EP4R [1] (setting [5]) is 150 nM. Also, the “Binding assay - 3H-PGE2 displacment, EP4R” value at EP4R [3] (Log[Drug] -6.00) is 59.5849; at EP4R [3] (Log[Drug] -9.00) it was 90.3175; on EP4R [3] (Log[Drug] -10.00), 100.146 and 103.649; on EP4R [3] (Log[Drug] -11.00), 105.004 and 113.288.

These data come from paper PMC10700596 (Nature Communications, 2023).
